Experiment: Pharmacokinetic properties of CGRP and analogues, plasma level by CGRP ELISA
Assay type: in vivo, Sprague Dawley rats
Conditions: SD rats, single s.c. injection; Analog alpha1 151 nmol/kg, Analogue beta1 231 nmol/kg
Method: Male Sprague Dawley rats (n=24) weighing approximately 250 g were used for the combined pharmacokinetic (T½, Cmaxetc.) and pharmacodynamic (GLP-1 release) study. The rats were divided in 4 groups with n=6 rats per group. The rats were treated with a single subcutaneous injection (1 ml/kg) of vehicle, alpha-CGRP (138 nmol/kg), Analogue beta1 (231 nmol/kg) or Analog alpha1 (151 nmol/kg). Blood (200 μl) was sampled from vena sublingualis from unanaesthetised rats pre-dose and at 0.5, 1, 3, 7 and 24 hours post dosing. Blood was collected in tubes containing EDTA. The samples were kept on ice and centrifuged. The plasma was kept at −20° C. until analysis for CGRP analog and total GLP-1.
A commercial available kit (Human CGRP ELISA, cat. #A05481, SPIbio) was used for monitoring the plasma levels of CGRP-analogues. Briefly, the assay was a two-sited enzyme-linked immuno sorbent assay (ELISA) using two antibodies against human CGRP. A monoclonal antibody was immobilized to the surface of micro plate wells. Five micro liter of plasma samples or calibrators were applied to the appropriate wells and incubated for 2 hours together with 100 μL buffer and 100 μL AChE-conjugated Fab′ fragment. […] The color intensity was determined by spectrophotometer at 405 nm. […] The lower limit of quantification of the modified CGRP assay was approximately 750 pM and the imprecision was (% CV)<10%.

N-alpha-[2-(2-{2-[(S)-4-Carboxy-4-(17-carboxyheptadecanoylamino)butyrylamino]ethoxy}ethoxy)acetyl][Ser1]beta-human CGRP peptide [Analogue beta 1]
Cmax: 210 nM | T½: >7 h

— patent US8835379B2, “Derivatives of CGRP” (Novo Nordisk A/S, priority 2009, dated 2014)
